In ChEMBL document CHEMBL1153301, “Identification and SAR of novel diaminopyrimidines. Part 1: The discovery of RO-4, a dual P2X(3)/P2X(2/3) antagonist for the treatment of pain” (Bioorg Med Chem Lett, 2009):

What follows are compounds tested against T1, P2X purinoceptor 3 (Rattus norvegicus, UniProt P49654) (assay: Antagonist activity at rat recombinant P2X3 receptor expressed in CHO cells by FLIPR assay).
T1 sequence (P49654 whole entry): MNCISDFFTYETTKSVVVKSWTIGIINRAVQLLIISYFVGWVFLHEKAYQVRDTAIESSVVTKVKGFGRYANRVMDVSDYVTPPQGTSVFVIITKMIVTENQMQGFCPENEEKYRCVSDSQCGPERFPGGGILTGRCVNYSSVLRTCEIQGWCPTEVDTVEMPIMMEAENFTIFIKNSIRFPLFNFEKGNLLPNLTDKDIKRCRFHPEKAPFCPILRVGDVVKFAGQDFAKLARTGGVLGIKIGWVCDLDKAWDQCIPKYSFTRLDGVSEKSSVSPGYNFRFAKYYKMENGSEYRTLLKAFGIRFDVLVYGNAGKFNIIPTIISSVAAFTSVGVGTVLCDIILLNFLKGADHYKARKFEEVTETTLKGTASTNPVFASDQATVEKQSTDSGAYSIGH

SMILES	pIC50
COc1cc(Cc2cnc(N)nc2N)c(C(C)(C)C)cc1OC	< 5.00
COc1cc(Cc2cnc(N)nc2N)c(C(C)C)cc1OC	6.90
CCCc1cc(OC)c(OC)cc1Cc1cnc(N)nc1N	< 5.00

pIC50: −log10 of the molar value.
